Source: PMC6209770 (Frontiers in Pharmacology, 2018)

Chains of the proteins cited; added tags and fusions are not shown.
UniProt P34969, whole entry: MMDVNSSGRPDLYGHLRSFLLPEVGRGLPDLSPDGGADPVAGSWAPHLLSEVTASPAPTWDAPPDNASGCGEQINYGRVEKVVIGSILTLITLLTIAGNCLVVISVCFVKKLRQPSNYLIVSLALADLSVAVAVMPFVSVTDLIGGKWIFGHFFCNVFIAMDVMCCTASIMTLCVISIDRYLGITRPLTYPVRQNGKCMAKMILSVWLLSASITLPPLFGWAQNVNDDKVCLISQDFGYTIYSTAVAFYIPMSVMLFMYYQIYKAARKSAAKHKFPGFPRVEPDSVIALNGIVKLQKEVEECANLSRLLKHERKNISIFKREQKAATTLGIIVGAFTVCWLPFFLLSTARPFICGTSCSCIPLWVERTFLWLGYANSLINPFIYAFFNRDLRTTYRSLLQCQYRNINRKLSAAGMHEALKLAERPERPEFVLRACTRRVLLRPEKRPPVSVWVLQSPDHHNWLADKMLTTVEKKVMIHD

Target: 5-HT7 receptor (Homo sapiens, UniProt P34969)
Test: Functional assay, intrinsic activity at 5-HT7
Assay type: cell-based

CC1CCN(CC[C@H]2CCCN2S(=O)(=O)c2cccc(O)c2)CC1 [SB269970, reference compound]
Agonist mode Emax % (5-HT7, agonist mode): 4%
Antagonist mode Emax % (5-HT7, antagonist mode): 8%
